Earlier results in PMC8694095.
pKd: −log10 of the molar value.

Amino acid sequences for entries named in this document (tags omitted). A change or cut given only in a name is not applied to a line headed by its entry. Residues count along the entry.
UniProt P97784: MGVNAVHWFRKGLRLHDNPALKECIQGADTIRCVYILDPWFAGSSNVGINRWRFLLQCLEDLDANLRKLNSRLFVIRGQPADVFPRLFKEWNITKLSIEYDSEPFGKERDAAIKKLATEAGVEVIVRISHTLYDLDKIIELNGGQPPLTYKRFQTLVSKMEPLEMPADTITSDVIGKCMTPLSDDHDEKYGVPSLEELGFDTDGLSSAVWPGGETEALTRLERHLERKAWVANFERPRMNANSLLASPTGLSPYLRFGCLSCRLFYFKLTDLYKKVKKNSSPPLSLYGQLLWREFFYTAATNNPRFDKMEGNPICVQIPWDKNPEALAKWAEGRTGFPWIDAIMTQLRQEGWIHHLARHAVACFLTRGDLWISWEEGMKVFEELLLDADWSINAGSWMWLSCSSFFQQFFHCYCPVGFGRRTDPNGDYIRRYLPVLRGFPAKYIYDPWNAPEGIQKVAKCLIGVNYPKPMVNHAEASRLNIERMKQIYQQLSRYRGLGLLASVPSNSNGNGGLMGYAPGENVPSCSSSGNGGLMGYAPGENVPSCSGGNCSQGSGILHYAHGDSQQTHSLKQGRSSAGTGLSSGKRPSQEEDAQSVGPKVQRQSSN
UniProt O54943, 1132-1252: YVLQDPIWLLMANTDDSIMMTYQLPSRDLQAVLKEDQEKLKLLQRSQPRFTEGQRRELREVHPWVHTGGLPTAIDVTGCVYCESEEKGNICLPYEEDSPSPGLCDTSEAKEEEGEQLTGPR

Molecular target: CRY (UniProt P97784)

Q: With PER CBD (from UniProt O54943) as the substance, how does the pKd read?
A: 7.70
